{"source": "patent EP4837590A1", "about": "“ANTIBODY, AND IMMUNOCONJUGATE COMPRISING SAME AND TLR7/8 AGONIST AND USE THEREOF” (dated 2026)", "system": "A2780cisR-FRα cells", "assay": "A2780cisR-FRα tumor-bearing mouse model", "details": "20 mg/kg, Q3-4Dx5, intraperitoneal injection", "data": [{"smiles": "CC(=O)O[C@H]1C(=O)[C@@]2(C)[C@H]([C@H](OC(=O)c3ccccc3)[C@]3(O)C[C@H](OC(=O)[C@H](O)[C@@H](NC(=O)c4ccccc4)c4ccccc4)C(C)=C1C3(C)C)[C@]1(OC(C)=O)CO[C@@H]1C[C@@H]2O", "values": [{"measurement": "body weight of the mice", "setting": "FIG. 22B", "result": "except the paclitaxel group, there was no significant difference in body weight"}, {"measurement": "Tumor volume (mm^3)", "setting": "day 26 after inoculation", "result": 793, "unit": "mm^3"}]}]}
